Source: US20240116921A1, “LACTAM (HETERO)[…] DERIVATIVES AS INHIBITORS OF ERBB2” (EnLiven Therapeutics, Inc., priority 2020, published 2024)

Test system: A431
Test: Cell viability assay (CellTiter Glo), A431
Details: Homo sapiens, A-431, 72 h, read-out: IC50, cell viability, A431

Compound: CCOc1cc2ncc(C#N)c(Nc3ccc(OCc4ccccn4)c(Cl)c3)c2cc1NC(=O)/C=C/CN(C)C [Neratinib, neratinib, reference compound]
- IC50: 0.0433 µM
